From PMC2793091 (Biochemistry, 2009) come the findings set out here.

Values joined by “and” are separate entries in the source; they are usually repeats but may differ in a detail not shown here. Equal values may be shown once. Read-outs that look alike come from different tables or passages of the source.

What all share (type): binding
The target of assay [1] is T1, hVAChT (Homo sapiens, UniProt Q16572).
T1 sequence (Q16572 1-532): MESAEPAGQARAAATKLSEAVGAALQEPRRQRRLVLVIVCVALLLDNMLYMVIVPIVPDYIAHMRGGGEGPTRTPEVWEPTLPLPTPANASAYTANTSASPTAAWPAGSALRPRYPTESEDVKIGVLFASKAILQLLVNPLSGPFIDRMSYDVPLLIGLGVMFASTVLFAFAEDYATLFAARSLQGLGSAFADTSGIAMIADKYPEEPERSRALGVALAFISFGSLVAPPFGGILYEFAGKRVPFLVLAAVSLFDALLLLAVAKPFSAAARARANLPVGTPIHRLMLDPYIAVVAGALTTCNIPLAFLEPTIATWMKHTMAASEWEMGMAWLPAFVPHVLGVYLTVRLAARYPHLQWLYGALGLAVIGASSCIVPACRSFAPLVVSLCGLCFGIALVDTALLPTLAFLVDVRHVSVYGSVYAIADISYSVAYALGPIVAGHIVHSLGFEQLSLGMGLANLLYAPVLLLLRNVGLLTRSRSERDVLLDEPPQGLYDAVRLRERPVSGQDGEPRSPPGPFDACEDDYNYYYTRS

Assay [2] deals with T1, hVAChT. The conditions noted are these: pH 5.0-6.9.
Assay [3] has as its target T1, hVAChT. Briefly: Saturation curves for [3H]vesamicol at alkaline pH values. The conditions noted are these: read-out: KdvespH.
In assay [4] the target is T1, hVAChT. Briefly: Time-dependent dissociation of bound [3H]vesamicol after excess.
For assay [5], the target named is T1, hVAChT. Briefly: Stability of hVAChT at high pH, pH cycling of bound [3H]vesamicol. As to conditions: pH 7.4, 4 nM [3H]vesamicol.

“(−)-[^3H]trans-2-(4-phenylpiperidino)cyclohexanol [[^3H]vesamicol]”: the “pKAves (Site A in [3H]vesamicol-bound hVAChT)” value on hVAChT [1] (Model (iii)) turned out to be 7.9 ± 0.3. Besides, the “α (factor by which KA changes when [3H]vesamicol is bound)” value at hVAChT [1] (Model (iii)) was 0.45 ± 0.11. In addition, the “pK1 (proton at Site 1 of hVAChT, must dissociate for [3H]vesamicol binding)” value on hVAChT [1] (Model (iii), averaged from five pH-binding profiles, 5 nM [3H]vesamicol) was found to be 6.5 ± 0.1. The “decrease of affinity on deprotonation of Site A” value on hVAChT [1] (protonated [3H]vesamicol) was 2.2 ± 0.5 fold and ~ 2 fold. The “increase of affinity on deprotonation of Site B” value on hVAChT [1] (protonated [3H]vesamicol) is 18 ± 4 fold and ~ 18 fold. Also, the “pK1 (weak acid that must dissociate to bind [3H]vesamicol)” value on hVAChT [2] (competitive model) worked out at 6.63 ± 0.06. In addition, at hVAChT [2], the Bmax was 23.6 ± 0.43 pmol/mg. For the same substance, the Kd at hVAChT [2] (read-out: apparent dissociation constant (Kves), competitive model) is 10.1 ± 1.15 nM; at hVAChT [3] (pH 7.1, protonated form), 12.5 ± 1.6 nM; on hVAChT [3] (pH 8.0, protonated form), 10.9 ± 1.4 nM; on hVAChT [3] (pH 8.9, protonated form), 9.1 ± 1.1 nM. Also, the “fraction of the dissociation that is fast” value on hVAChT [4] (all alkaline pH values) is given as 73 – 80%. Moreover, the “change of the faster and slower rate constants” value at hVAChT [4] (from pH 7.3 to pH 9.5) is on record as “increase by a factor of four”. Moreover, the Fractfast on hVAChT [4] (pH 7.3) was 0.75 ± 0.08; on hVAChT [4] (pH 8.5), 0.80 ± 0.04; on hVAChT [4] (pH 9.5), 0.73 ± 0.05. Besides, the figures for the kfast at hVAChT [4] (pH 7.3), on hVAChT [4] (pH 8.5) and at hVAChT [4] (pH 9.5) were 0.54 ± 0.08 min⁻¹, 1.42 ± 0.13 min⁻¹ and 2.27 ± 0.25 min⁻¹, respectively. Further, the figures for the kslow at hVAChT [4] (pH 7.3), at hVAChT [4] (pH 8.5) and at hVAChT [4] (pH 9.5) were 0.08 ± 0.03 min⁻¹, 0.16 ± 0.05 min⁻¹ and 0.33 ± 0.07 min⁻¹, respectively. Further, on hVAChT [5], the “time of initial binding to reach equilibrium” value is given as ~ 10 min.
